Data on nine molecules can be found in patent publication US20060018915A1 (EPIMUNNE, published 2006).

The first assay concerns the target T1, HLA-A2.1 (human).
T1 construct: MHC class I molecule, purified; also called purified HLA-A2.1 molecules
As to the kind of experiment: competition with radiolabeled HBV Core.18 peptide for purified HLA-A2.1.
The molecule KVAEIVHFL (analog) [MAGE3.112 I5] had an IC50 of 66 nM.

YLQLFFGIEV (analog) [MAGE2.157 F5] registered an IC50 of 212 nM.

In turn, YLQLIFGIEV (analog) [MAGE2.157 I5] displayed an IC50 of 476 nM.

In turn, IMIGVLVGV [CEA.691] returned an IC50 of 54 nM.

Molecule IMIGHLVGV (analog) [CEA.691 H5] yielded an IC50 of 16 nM.

Regarding IMMGVLVGV (analog) [CEA.691 M3], the IC50 is 27 nM.

A further assay deals with T2, A*2402 (human).
T2 construct: MHC class I molecule; form in the assay not described; also called HLA-A*2402
Kind of assay: HLA binding, candidate-epitope table; assay not described.
Consider SYVKVLHHTF (also called 57.0088) [MAGE2.282F10], for which the IC50 was 34 nM.

For another assay, the target named is T3, A*0101 (human, UniProt P61769 21-119).
T3 construct: MHC class I molecule; form in the assay not described; also called HLA-A*0101
The assay is described as above.
VTDLGLSY (also called 57.0003) [MAGE2.179.D3] displayed an IC50 of 2.7 nM.

Turning to PTDSPSYTYY (also called 57.0104) [CEA.418.D3], the IC50 worked out at 1.1 nM.

Usually IC50 stands for the concentration at which inhibition is half-maximal. High values mean a need for much substance, low ones inhibition by little substance.
